# Test results published in US7851599B2, “Combination of an anti-ED—B fibronectin domain antibody—IL-2 fusion protein and gemcitabine” (Philogen S.p.A., priority 2006, dated 2010).
# Legend:
# Assay type in all cases: in vivo, nude mice
# [1] = tested on: serum lipase; test: Serum lipase as surrogate marker of pancreatitis; conditions: DanG-bearing mice; end of treatment
# Protocol: (§1) Mouse blood samples were obtained by retroorbital bleeding or decapitation. Samples were centrifuged and supernatants were stored at −20° C. Serum CA 19-9 levels were measured by a fully automated chemiluminescence immunoassay on an ADVIA Centaur (Bayer, Leverkusen, Germany) and eipase levels were determined using a kinetic colorimetric assay on an ADVIA 2400 (Bayer, Leverkusen, Germany).
# (§2) To determine the efficacy of L19IL2 treatment in a pancreatic cancer situation, athymic nude mice were orthotopically injected with the human pancreatic cancer cell line DanG. […] At the end of therapy, all mice were sacrificed and the tumor volume was calculated. […] Based on this observation, we evaluated the time-response relationship of L19IL2 induced tumor growth delay by repeatedly collecting blood samples of vehicle and L19IL2 treated mice. […]
# FIG. 2 Therapeutic effects of L19IL2 against orthotopic pancreatic cancer in nude mice. […] All mice were sacrificed on day 21 and tumor volume was calculated (A, C). […] Values are expressed as the percentage of tumor volume from vehicle treated controls. *: p≦0.004 (versus control and L1 g). […] Serum concentrations of CA 19-9 were determined by chemiluminescence immunoassay and CA 19-9 level versus tumor volume was plotted for each individual animal. […] At the end of treatment, blood samples were collected and serum lipase was analyzed by a kinetic calorimetric assay. […]
# [2] = tested on: human pancreatic cancer cell line MiaPaca; test: Orthotopic MiaPaca pancreatic cancer xenograft, tumor volume
# Protocol: (§3) Orthotopic transplantation was carried out as described.
# To investigate whether L19IL2 induced reduction of tumor growth is cell-type specific, mice were orthotopically injected with the human pancreatic cancer cell line MiaPaca. After establishment of solid tumors, mice were randomized to receive 0.9% saline or 1.43MIU/kg BW or 4.29 MIU/kg BW IL-2 equivalents of either L19IL2 or IL-2 for 10 days.
# FIG. 2 Therapeutic effects of L19IL2 against orthotopic pancreatic cancer in nude mice. A-C Nude mice were orthotopically injected with the human pancreatic cancer cell line DanG. […] All mice were sacrificed on day 21 and tumor volume was calculated (A, C). […] Values are expressed as the percentage of tumor volume from vehicle treated controls. *: p≦0.004 (versus control and L1 g). […] Serum concentrations of CA 19-9 were determined by chemiluminescence immunoassay and CA 19-9 level versus tumor volume was plotted for each individual animal. […] At the end of treatment, blood samples were collected and serum lipase was analyzed by a kinetic calorimetric assay. […] All mice were killed at day 54 and the tumor volume was calculated. Data shown are expressed as the mean±SEM of each treatment group. *: p≦0.0007 (versus control); +, p=0.0003 (L19IL2 1.43 MIU/kg BW versus equimolar amounts of IL-2); ‡: p=0.0513 (L19IL2 4.29 MIU/kg BW versus equimolar amounts of IL-2).
# [3] = tested on: serum CA 19-9; test: Serum CA 19-9 levels in mice bearing orthotopic DanG tumors; conditions: after treatment (data not shown)
# Protocol: as §3, §1, §2
# FIG. 2 Therapeutic effects of L19IL2 against orthotopic pancreatic cancer in nude mice. […] All mice were sacrificed on day 21 and tumor volume was calculated (A, C). […] Values are expressed as the percentage of tumor volume from vehicle treated controls. *: p≦0.004 (versus control and L1 g). […] Serum concentrations of CA 19-9 were determined by chemiluminescence immunoassay and CA 19-9 level versus tumor volume was plotted for each individual animal. […]
# [4] = tested on: human pancreatic cancer cell line DanG; test: Orthotopic DanG pancreatic cancer xenograft, tumor volume
substance,measurement,setting,value
"IL-2: untargeted Interleukin 2, anti-tumor cytokine used as comparator",serum lipase concentrations compared to controls,[1],neither L19IL2 nor untargeted IL-2 interfered
same,"tumor volume, % of control","[2]; high dosage 4.29 MIU/kg BW IL-2 equivalents, days 40-44, 47-51, killed day 54",47.3%
same,therapeutic effect on tumor load,[2]; low dosage 1.43 MIU/kg BW for 10 days,not therapeutic
same,serum CA 19-9 levels in tumor bearing mice,[3],did not impinge on serum tumor markers
same,effect on tumor growth,[4]; higher dose 4.29 MIU/kg BW for 10 days,only a minor effect
same,effect on tumor growth,[4]; lower dose 1.43 MIU/kg BW for 10 days,no effect on tumor growth
